This is a selection; strong and weak results do not stand in their true shares. Activity calls are given as the source filed them. Cut-off read from the data, not from the text of the source: active = inhibition above about 43%; inactive = the rest.
These molecules were tested against Serine/threonine-protein kinase ULK1 (Homo sapiens) (UniProt O75385) (assay: ULK1 kinase inhibitors, primary screen, biochemical, AlphaScreen (AID 1259251;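 note: 0% = median of compound wells and 100% = no enzyme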)). Conditions: AlphaScreen Atg13 phosphorylation by ULK1, luminescence; at 5.96 µM; active compounds read high.

Chains of the proteins cited; added tags and fusions are not shown.
UniProt O75385, whole entry: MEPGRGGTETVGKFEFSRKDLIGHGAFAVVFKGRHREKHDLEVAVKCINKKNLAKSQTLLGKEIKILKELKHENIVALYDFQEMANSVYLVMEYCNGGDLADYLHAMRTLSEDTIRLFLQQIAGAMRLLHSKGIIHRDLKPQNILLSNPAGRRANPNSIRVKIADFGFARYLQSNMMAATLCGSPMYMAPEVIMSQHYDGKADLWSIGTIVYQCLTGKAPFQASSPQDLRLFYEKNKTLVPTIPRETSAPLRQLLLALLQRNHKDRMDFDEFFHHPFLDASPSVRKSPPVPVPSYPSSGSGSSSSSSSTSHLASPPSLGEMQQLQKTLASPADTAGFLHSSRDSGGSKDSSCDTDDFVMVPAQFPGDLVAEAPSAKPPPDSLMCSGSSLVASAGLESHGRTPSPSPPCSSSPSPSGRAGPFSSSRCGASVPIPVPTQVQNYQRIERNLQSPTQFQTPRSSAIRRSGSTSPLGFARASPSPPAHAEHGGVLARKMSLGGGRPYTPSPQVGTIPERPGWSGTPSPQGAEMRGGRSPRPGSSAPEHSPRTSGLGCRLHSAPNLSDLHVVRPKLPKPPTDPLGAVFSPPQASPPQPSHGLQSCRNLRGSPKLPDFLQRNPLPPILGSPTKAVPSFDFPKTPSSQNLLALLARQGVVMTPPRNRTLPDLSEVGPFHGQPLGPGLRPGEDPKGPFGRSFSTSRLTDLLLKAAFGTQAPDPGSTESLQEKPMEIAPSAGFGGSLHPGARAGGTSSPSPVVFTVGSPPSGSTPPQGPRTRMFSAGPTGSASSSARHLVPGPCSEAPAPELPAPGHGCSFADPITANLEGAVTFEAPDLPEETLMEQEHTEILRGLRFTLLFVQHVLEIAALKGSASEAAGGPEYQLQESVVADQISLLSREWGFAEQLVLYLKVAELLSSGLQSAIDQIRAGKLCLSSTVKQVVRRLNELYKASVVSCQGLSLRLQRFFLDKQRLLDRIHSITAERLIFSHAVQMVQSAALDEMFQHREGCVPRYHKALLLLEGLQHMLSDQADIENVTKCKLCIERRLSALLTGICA

Row | SMILES | inhibition
1 | CCOC(=O)N1CCC(=O)CC1 | inactive: -17.9%
